## Ab-14 heavy chain CDR variants: yeast mating affinities

All variants were tested on one target, the spike HR2 peptide PDVDLGDISGINAS (SARS-CoV-2).

Ab-14 is the parent antibody, in scFv form: VH, then the linker GGGGSGGGGSGGGGS, then VL. The light chain is unchanged in all variants.
VH: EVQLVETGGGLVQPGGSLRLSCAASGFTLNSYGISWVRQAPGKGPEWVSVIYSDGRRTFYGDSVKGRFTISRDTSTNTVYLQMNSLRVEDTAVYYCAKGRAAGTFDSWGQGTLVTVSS
VL: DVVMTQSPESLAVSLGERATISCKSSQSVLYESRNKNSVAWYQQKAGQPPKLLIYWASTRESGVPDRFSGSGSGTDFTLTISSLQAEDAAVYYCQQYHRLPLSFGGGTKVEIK

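The starting antibody came from a phage panning campaign against this peptide. The variants were designed computationally from a first round of random CDR variants and then made and measured. Group labels follow the data file (En: ensemble of fine-tuned language models; HC: hill climbing; Gen: genetic algorithm; Gibbs: Gibbs sampling; a sequence that several methods proposed may carry one label only). In AlphaSeq, yeast of one mating type display the scFv and yeast of the other type display the target. The frequency of each diploid, read from paired DNA barcodes, reflects how well the two displayed proteins bind. Read counts were normalised to the haploid input and turned into Kd by a linear fit to BCL2-family pairs of known affinity, for each replicate. There are six technical replicates.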

Each variant is given by its three heavy chain CDRs, as the data file delimits them; those of the parent are GFTLNSYGIS, VIYSDGRRTFYGDSVK, GRAAGTFDS.
Variants here have more than six changes.
Each Kd is an estimate from the mating assay, the geometric mean of the replicates in which the pair was seen; lower is stronger.
A pair that was not seen in any replicate is written "no signal"; this usually means weak binding, but a binder can also be missed.
The range of this assay differs from that of the first round, and the authors advise against merging the two.

CDR-H1,CDR-H2,CDR-H3,group,Kd (apparent),replicates with signal
GFDLNEYGIS,VIYADGMRTSYADSVK,GNQAGTFDM,En_Gen,8.5 nM,4/6
GFDLNEYGIS,VIYADGVRTAYADSVK,GNEAGTFDL,En_Gen,260 pM,6/6
GFEIDEYGIS,VIYADGRRRAYADDVK,GNDIGGFDL,En_Gibbs,no signal,0/6
GDSLEEYGIS,VIYADGKRTAYKNKAK,GQVAGYFDV,En_Gibbs,31 nM,1/6
GFALDEYGIS,VIYADGKRTFYSNTVK,GEDGVFYDQ,En_Gibbs,1.9 µM,1/6
GFDLDEYGIS,VIYADGRRTFYADSVK,GENAGTFFS,En_HC,6.1 nM,6/6
GFGLDEYGIS,VIYADGMRAQYATNVK,GYEAGTFST,En_Gibbs,7.5 nM,1/6
GFDFQEYGIS,VIYADGMRTNASDDVK,GNIGATFDD,En_Gibbs,540 nM,1/6
GFNLDEYGIS,VIYADGMRTAYSDSVK,GETAGTFDV,En_Gen,620 pM,6/6
GDDLENVGIS,VIYADGMRNQYAQSVK,GHTGGTFFD,En_Gibbs,no signal,0/6
GDQLDEYGIS,VIYADGMRTMYADSFK,GMKSVNIGD,En_Gibbs,no signal,0/6
GDSLDEYGIS,VIYADGQRSYYANSVK,GEHDGLFSQ,En_Gibbs,no signal,0/6
GMNLGEYGIS,VIYADGVRQAYVDKVK,GFNGVDGLV,En_Gibbs,no signal,0/6
GDDLEAYGIS,VIYADGMRTYYDDAVK,GKVNGTFTD,En_Gibbs,no signal,0/6
GFKLDEQGIS,VIYADGRRVGYTDSVK,GTNGLDFTL,En_Gibbs,no signal,0/6
GFDLNEYGIS,VIYADGSRTAYADKVK,GNVAGTFDI,En_Gen,350 pM,6/6
GFNLDEYGIS,VIYADGRRTFYADSVK,GQVAGTFLI,En_HC,1.0 nM,6/6
GFDLDEYGIS,VIYADGMRSAIRENVK,GEISGTLNA,En_Gibbs,21 nM,5/6
GFDLNEYGIS,VIYADGLRTAYSDSVK,GEVAGTFDV,En_Gen,390 pM,6/6
GFDLDEYGIS,VIYADGMRTAYADDVK,GETAGTFDQ,En_Gen,410 pM,6/6
GFDLNEYGIS,VIYADGMRTAYEDKVK,GTFLDAGWL,En_Gibbs,no signal,0/6
GDSLAEYGIS,VIYADGERSAYKNSFK,GWVAGYFDV,En_Gibbs,no signal,0/6
GEVLDEYGIS,VIYADGQRVQYTDAVK,GLLTGAFDM,En_Gibbs,no signal,0/6
GFDLNEYGIS,VIYADGMRTFYADSVK,GKIAGTFNV,En_HC,98 pM,6/6
GFNLNEYGIS,VIYADGRRKFYADSVK,GNTAGTFDA,En_HC,170 pM,6/6
GMDLGEYGIS,VIYADGERASYTNNFK,GVSAGTFTV,En_Gibbs,no signal,0/6
GFDLDEYGIS,VIYADGMRTFYADSVK,GEVAGTFDV,En_Gen,390 pM,6/6
GFDLEDYGIS,VIYADGRRTAYIDSVK,GEAAGTFDS,En_HC,610 pM,6/6
GFDINEYGIS,VIYADGKRMAYAWKVK,GKEAGTLIL,En_Gibbs,no signal,0/6
GEDLLEIGIS,VIYADGSRVAYTNAVK,GNLAGVFDL,En_Gibbs,no signal,0/6
GFDLNEYGIS,VIYADGRRTFYTDSVK,GEVAGTFDV,En_HC,410 pM,6/6
EFDLNEYGIS,VIYADGHRSFYIDTVK,GQVAGIFNM,En_Gibbs,no signal,0/6
GFELDEYGIS,VIYADGKRKAYDNAVK,GKTGGVKLD,En_Gibbs,no signal,0/6
GFDLEEYGIS,VIYADGKRSSVSNSVK,GQLGNAFDM,En_Gibbs,2.1 µM,2/6
GFDLDEYGIS,VIYADGVRTAYADDVK,GENAGTFDI,En_Gen,560 pM,6/6
GFDLNEYGIS,VIYADGMRTSYADSVK,GANAGTFDV,En_Gen,160 pM,6/6
GFDLNEYGIS,VIYADGSRTQYIDSVK,GEVAGTFDS,En_HC,no signal,0/6
GFDLNEYGIS,VIYADGKRTAYADDVK,GNVAGTFDI,En_Gen,440 pM,6/6
GFDLNEYGIS,VIYADGVRTAYADKVK,GNVAGTFDT,En_Gen,510 pM,6/6
GFDLDEYGIS,VIYADGRRTFYADSVK,GTNAGTFDQ,En_HC,250 pM,6/6
GFTLDEYGIS,VIYADGMRTQYIDQVK,GDLVNTNMT,En_Gibbs,no signal,0/6
GFDLNEYGIS,VIYADGRRTFYADSVK,GEVAGTFDQ,En_HC,1.0 nM,6/6
GKNLDEYGVS,VIYADGKRTAYTNNFK,GTNAGFFMS,En_Gibbs,no signal,0/6
GFDLNEYGIS,VIYADGRRTAYSDSVK,GQVAGTFDV,En_Gen,590 pM,6/6
GFDLDEYGIS,VIYADGRRTAYADSVK,GNQAGTFDM,En_Gen,550 pM,6/6
GFDLDEYGIS,VIYADGQRTAYADSVK,GNNAGTFDM,En_Gen,1.0 nM,6/6
GFDLEEYGIS,VIYADGMRTAYADSVK,GETAGTFDV,En_Gen,480 pM,6/6
GFDLNEYGIS,VIYADGVRTAYIDSVK,GNVAGTFDL,En_Gen,550 pM,6/6
GFDLNEYGIS,VIYADGQRTFYIDSVK,GEAAGTFDM,En_HC,190 pM,6/6
GFDLNEYGIS,VIYADGLRTFYTDSVK,GEFAGTFDA,En_HC,2.5 nM,6/6
GFDLDEYGIS,VIYADGMRTAYADKVK,GNVAGTFDQ,En_Gen,270 pM,6/6
GFDLDEYGIS,VIYADGVRMAYTDSVK,GNWSGRDML,En_Gibbs,130 nM,1/6
GKELDEYGIS,VIYADGVRKAYQNSVK,GQVTFFIRV,En_Gibbs,no signal,0/6
GFDIDEYGIS,VIYADGSRAVYTESVK,GHNGNRLVG,En_Gibbs,no signal,0/6
GNDLNEYGIS,VIYADGMRMAYLNDVK,GQKGGLFFM,En_Gibbs,no signal,0/6
GHDLNEYGIS,VIYADGKRSYYAQDVK,GQNIGQGTD,En_Gibbs,12 nM,1/6
GFDLDEYGIS,VIYADGQRTAYADNVK,GEVAGTFDI,En_Gen,350 pM,6/6
GFDLNEYGIS,VIYADGRRTAYIDSVK,GEAAGTFDQ,En_HC,21 nM,6/6
GFDLEEYGIS,VIYADGQRTAYADSVK,GQNAGTFDV,En_Gen,1.5 nM,6/6
GFDLNEYGIS,VIYADGRRTAYADSVK,GQVAGTFDI,En_Gen,130 pM,6/6
GFDLEEMGIS,VIYADGSRKVYQDAVK,GGVSGDFDK,En_Gibbs,85 nM,4/6
GFDLDEYGIS,VIYADGMRTAYADDVK,GENAGTFDQ,En_Gen,440 pM,6/6
GFNLDEYGIS,VIYADGRRTFYSDNVK,GEHAGTFDI,En_HC,540 pM,6/6
GFDLNEYGIS,VIYADGSRTAYIDSVK,GNVAGTFDL,En_Gen,420 pM,6/6
GFNLNEYGIS,VIYADGRRTAYADSVK,NQNMSGMVT,En_Gibbs,no signal,0/6
GFDLNEYGIS,VIYADGIRTAYADDVK,GENAGTFDV,En_Gen,390 pM,6/6
GFDLNEYGIS,VIYADGKRTAYANDVK,GEVAGTFDV,En_Gen,100 pM,6/6
GFDLNEYGIS,VIYADGRRTSYIDSVK,GETAGTFDQ,En_HC,440 pM,6/6
GFDLNEYGIS,VIYADGMRTAYADDVK,GTNAGTFDL,En_Gen,500 pM,6/6
GFSLDEYGIS,VIYADGVRKSYMNSVK,GNITGTLFA,En_Gibbs,no signal,0/6

Excerpt, the first 10 entries:

CDR-H1,CDR-H2,CDR-H3,group,Kd (apparent),replicates with signal
GFDLNEYGIS,VIYADGMRTSYADSVK,GNQAGTFDM,En_Gen,8.5 nM,4/6
GFDLNEYGIS,VIYADGVRTAYADSVK,GNEAGTFDL,En_Gen,260 pM,6/6
GFEIDEYGIS,VIYADGRRRAYADDVK,GNDIGGFDL,En_Gibbs,no signal,0/6
GDSLEEYGIS,VIYADGKRTAYKNKAK,GQVAGYFDV,En_Gibbs,31 nM,1/6
GFALDEYGIS,VIYADGKRTFYSNTVK,GEDGVFYDQ,En_Gibbs,1.9 µM,1/6
GFDLDEYGIS,VIYADGRRTFYADSVK,GENAGTFFS,En_HC,6.1 nM,6/6
GFGLDEYGIS,VIYADGMRAQYATNVK,GYEAGTFST,En_Gibbs,7.5 nM,1/6
GFDFQEYGIS,VIYADGMRTNASDDVK,GNIGATFDD,En_Gibbs,540 nM,1/6
GFNLDEYGIS,VIYADGMRTAYSDSVK,GETAGTFDV,En_Gen,620 pM,6/6
GDDLENVGIS,VIYADGMRNQYAQSVK,GHTGGTFFD,En_Gibbs,no signal,0/6

The authors' rule: three or more of the six replicates give a measured affinity, fewer mean a poor binder.
Empty control strains, which show no peptide, gave a signal in 1% of pairings with all heavy chain designs; the median was 120 nM and 95% of these signals were weaker than 7.0 nM. No background was subtracted.

Reference: Li et al. 2023, doi:10.1038/s41467-023-39022-2. File: FLAb, binding data.